Measured affinities in a library of Ab-14 light chain variants

Data: MIT Lincoln Laboratory AlphaSeq set, Engelhart et al. 2022, doi:10.1038/s41597-022-01779-4, as distributed in FLAb.

Binding partner: SARS-CoV-2 spike HR2 peptide, sequence PDVDLGDISGINAS.

Each scFv is VH, a (GGGGS)3 linker, VL, as in the parent Ab-14, and differs from it in the CDRs of the light chain only.
VH: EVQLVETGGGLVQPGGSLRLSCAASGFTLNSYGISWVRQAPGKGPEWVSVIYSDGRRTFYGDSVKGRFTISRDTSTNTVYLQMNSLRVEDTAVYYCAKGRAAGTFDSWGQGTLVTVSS
VL: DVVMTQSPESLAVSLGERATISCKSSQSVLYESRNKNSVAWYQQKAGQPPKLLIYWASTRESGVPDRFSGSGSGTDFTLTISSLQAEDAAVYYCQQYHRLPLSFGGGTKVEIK

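The parent was found by panning a naive human phage display library on the peptide. In library AAYL50, one, two or three CDR residues were substituted; doubles and triples were drawn at random. The assay is AlphaSeq: two haploid yeast populations carry antibody and antigen on their surface. The frequency of each diploid, read from paired DNA barcodes, reflects how well the two displayed proteins bind. Scores were corrected for input abundance and mapped to Kd with protein pairs of known affinity run in the same pool. Mating was done three times.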

Positions count from residue 1 of the parent VL; S28A puts A in place of S.
Values are log10 of the apparent Kd in nM; lower means stronger binding.
A mean of the replicates is given; it leaves out those without a signal.
Where no diploid with the target was found in that replicate, the entry reads "n.d.": below detection, most likely a poor binder, though not proof of it.
As a blank, each scFv also met three strains without target: over library AAYL50, 18% of these pairings were detected, typically at 4.19 and seldom below 2.99. Also given: how often the same scFv was detected with the empty control strains, with their mean in brackets.

| # | changes | log10 Kd, replicates | log10 Kd (nM), mean | signal with controls |
|---|---|---|---|---|
| 1 | S28A Y31P T59K | 1.26 1.25 1.77 | 1.43 | 1/9 (3.58) |
| 2 | K24V T59K Y97R | n.d. n.d. n.d. | n.d. | 2/9 (3.25) |
| 3 | L30H S58D P101H | n.d. n.d. n.d. | n.d. | 1/9 (4.00) |
| 4 | Q27S R99C | 3.99 3.27 4.41 | 3.89 | 2/9 (4.31) |
| 5 | V39E A57E S103Q | n.d. n.d. n.d. | n.d. | 0/9 |
| 6 | S38Y W56F E61N | 3.21 3.26 2.92 | 3.13 | 1/9 (3.94) |
| 7 | Y31Q N35L L100K | 0.29 0.55 0.46 | 0.43 | 1/9 (3.97) |
| 8 | V39N Q96G L102P | n.d. n.d. n.d. | n.d. | 1/9 (3.41) |
| 9 | Y31D N35V R60I | 1.37 1.33 1.55 | 1.42 | 3/9 (4.81) |
| 10 | A57F Q96E L100Y | n.d. 2.34 n.d. | 2.34 | 2/9 (3.41) |
| 11 | K24G S33G R99Q | 3.85 5.69 6.46 | 5.33 | 5/9 (4.33) |
| 12 | A57W Q95R L100F | 5.96 4.96 6.28 | 5.73 | 3/9 (4.10) |
| 13 | E32T W56E P101E | 0.22 0.47 0.57 | 0.42 | 2/9 (5.49) |
| 14 | S25F S28C S58R | 1.98 2.14 2.30 | 2.14 | 3/9 (3.97) |
| 15 | Q27S Q96M L102I | 3.50 2.70 3.08 | 3.09 | 1/9 (3.83) |
| 16 | Q27A E32K A40Q | 4.24 4.73 n.d. | 4.49 | 2/9 (4.81) |
| 17 | S33P A40G Y97P | n.d. n.d. n.d. | n.d. | 0/9 |
| 18 | N35M Q96H L102Y | 0.67 0.86 1.30 | 0.94 | 0/9 |
| 19 | R99L L102N S103A | 1.61 2.24 1.71 | 1.85 | 0/9 |
| 20 | V29M Y31A H98I | 0.97 1.12 1.08 | 1.06 | 7/9 (4.71) |
| 21 | Y31V S33A P101I | n.d. n.d. n.d. | n.d. | 0/9 |
| 22 | S26Y H98I | 2.27 2.02 1.90 | 2.06 | 3/9 (3.60) |
| 23 | S25M Q96M L100H | 0.06 0.33 0.11 | 0.17 | 0/9 |
| 24 | S26D R60F Q96W | n.d. n.d. n.d. | n.d. | 0/9 |
| 25 | S62R Q95S S103P | n.d. n.d. n.d. | n.d. | 0/9 |
| 26 | Q27M W56M R60L | 2.49 2.43 2.82 | 2.58 | 2/9 (4.98) |
| 27 | K36W T59H S62E | 1.05 1.26 1.07 | 1.12 | 4/9 (4.62) |
| 28 | A57E P101F | n.d. 3.69 n.d. | 3.69 | 3/9 (3.89) |
| 29 | A57V E61T S62Y | 3.08 2.36 2.60 | 2.68 | 1/9 (2.87) |
| 30 | R34C S38D L102I | 2.24 2.38 2.37 | 2.33 | 2/9 (3.79) |

Excerpt, the first 5 entries:

changes	log10 Kd, replicates	log10 Kd (nM), mean	signal with controls
S28A Y31P T59K	1.26 1.25 1.77	1.43	1/9 (3.58)
K24V T59K Y97R	n.d. n.d. n.d.	n.d.	2/9 (3.25)
L30H S58D P101H	n.d. n.d. n.d.	n.d.	1/9 (4.00)
Q27S R99C	3.99 3.27 4.41	3.89	2/9 (4.31)
V39E A57E S103Q	n.d. n.d. n.d.	n.d.	0/9